# Tested on: human PBMC cultures
# Experiment: Induction of CD69 activation marker on immune cell subsets in PBMC cultures (Trametes versicolor study)
# Format: cell-based
# Conditions: 24 h, positive controls LPS 10 ng/mL, IL-2 100 IU/mL, mean±SD
# Experimental: Peripheral venous blood was drawn from three healthy human donors upon written informed consent, as approval by the Sky Lakes Medical Center Institutional Review Board, Federalwide Assurance 2603. The blood was drawn into heparin vacutainer vials, and the peripheral blood mononuclear cells (PBMC) isolated using Lympholyte Poly (Cedarlane Labs, Burlington, Ontario, Calif.) by centrifugation for 35 min at 450 g. The PBMC were washed twice in PBS, counted, and the density adjusted to establish cultures with a cell density at 10^6/mL, using Roswell Park Memorial Institute 1640 medium containing penicillin-streptomycin and 10% heat-inactivated fetal bovine serum (Gibco, Thermo Fisher Scientific, Asheville, N.C.).
# Serial dilutions of products or LPS were added to cultures at a volume of 20 μL, and cultures were then incubated at 37° C., 5% CO2 for 24 h. The highly inflammatory LPS from Salmonella enterica was used as a positive control for immune-cell activation at a dose of 10 ng/mL. In parallel, IL-2 was used as a positive control for natural killer (NK)-cell activation, at a concentration of 100 IU/mL. Untreated negative control cultures consisted of PBMC exposed to phosphate-buffered saline in the absence of test products. All treatments, including each dose of test product and each positive and negative control, were tested in triplicate. After 24 h, blood cells were isolated from each culture well and stained for 10 min with fluorochrome-labeled antibodies at the recommended concentration. PBMC were then fixed using 0.5% formalin. The fluorescence intensities for CD3, CD56, and CD69 were measured by flow cytometry, using an Attune acoustic-focusing flow cytometer (Thermo Fisher Scientific).
# During data analysis, gating on forward and side scatter facilitated evaluation of the levels of CD69 expression on lymphocyte and monocyte subsets. The lymphocyte subpopulation was further analyzed for CD69 expression on CD3+ T lymphocytes, CD3+ CD56+ NKT lymphocytes, and CD3− CD56+ NK cells.
substance,measurement,value
interleukin-2 [IL-2],"CD69 percent change compared to untreated control cultures, NK cells",446±60.0%
same,"CD69 percent change compared to untreated control cultures, NKT cells",150±25%
same,"CD69 percent change compared to untreated control cultures, T lymphocytes",39±0.9%

# From patent publication US11779620B2 (priority 2020, dated 2023)
